Biological target: AChE (Homo sapiens, UniProt P22303)
Assay: biochemical

The chains behind the UniProt entries cited, without tags or fusion partners. Residues count along the entry.
UniProt P22303, 32-614: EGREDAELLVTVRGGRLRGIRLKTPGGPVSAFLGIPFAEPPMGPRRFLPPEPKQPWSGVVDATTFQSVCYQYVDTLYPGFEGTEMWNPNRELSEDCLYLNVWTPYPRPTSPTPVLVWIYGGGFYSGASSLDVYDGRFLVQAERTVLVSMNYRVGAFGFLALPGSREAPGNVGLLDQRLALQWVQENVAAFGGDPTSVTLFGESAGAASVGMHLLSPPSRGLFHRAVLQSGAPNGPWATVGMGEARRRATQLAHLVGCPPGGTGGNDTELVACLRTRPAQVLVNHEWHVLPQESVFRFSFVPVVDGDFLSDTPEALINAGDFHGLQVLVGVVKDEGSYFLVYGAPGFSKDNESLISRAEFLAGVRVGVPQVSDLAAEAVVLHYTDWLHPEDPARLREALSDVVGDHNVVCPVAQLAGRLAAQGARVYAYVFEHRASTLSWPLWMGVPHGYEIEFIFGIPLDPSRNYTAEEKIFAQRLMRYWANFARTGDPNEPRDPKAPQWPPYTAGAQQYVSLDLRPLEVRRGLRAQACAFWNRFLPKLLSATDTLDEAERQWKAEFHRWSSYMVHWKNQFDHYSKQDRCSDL

## COc1ccc2cc3[n+](cc2c1OC)CCc1cc2c(cc1-3)OCO2 [berberine, reference compound]
  IC50: 190 nM
